The numbers were not newly measured in publication PMC12193579, “Pro-Apoptotic Activity of 1-(4,5,6,7-Tetrabromo-1H-benzimidazol-1-yl)propan-2-one, an Intracellular Inhibitor of PIM-1 Kinase in Acute Lymphoblastic Leukemia and Breast Cancer Cells” (International Journal of Molecular Sciences, 2025), which cites them from elsewhere.

The structures appear in SMILES notation.

This data set concerns the target CK2. Details: method as in PMID 15358133. The settings on record: cited from earlier work.

Take `CN(C)c1nc2c(Br)c(Br)c(Br)c(Br)c2[nH]1` [DMAT, 2-Dimethylamino-4,5,6,7-tetrabromo-1H-benzimidazole]: the Ki is 40 nM.

The term Ki denotes the equilibrium dissociation constant of an inhibitor or competing ligand from its target.
